Data published in ChEMBL document CHEMBL3826913 (Eur J Med Chem, 2016).

Sequences of proteins named here, by UniProt entry; tags and fusion partners are left off. A change or cut given only in a name is not applied to a line headed by its entry.
UniProt Q9UGN5: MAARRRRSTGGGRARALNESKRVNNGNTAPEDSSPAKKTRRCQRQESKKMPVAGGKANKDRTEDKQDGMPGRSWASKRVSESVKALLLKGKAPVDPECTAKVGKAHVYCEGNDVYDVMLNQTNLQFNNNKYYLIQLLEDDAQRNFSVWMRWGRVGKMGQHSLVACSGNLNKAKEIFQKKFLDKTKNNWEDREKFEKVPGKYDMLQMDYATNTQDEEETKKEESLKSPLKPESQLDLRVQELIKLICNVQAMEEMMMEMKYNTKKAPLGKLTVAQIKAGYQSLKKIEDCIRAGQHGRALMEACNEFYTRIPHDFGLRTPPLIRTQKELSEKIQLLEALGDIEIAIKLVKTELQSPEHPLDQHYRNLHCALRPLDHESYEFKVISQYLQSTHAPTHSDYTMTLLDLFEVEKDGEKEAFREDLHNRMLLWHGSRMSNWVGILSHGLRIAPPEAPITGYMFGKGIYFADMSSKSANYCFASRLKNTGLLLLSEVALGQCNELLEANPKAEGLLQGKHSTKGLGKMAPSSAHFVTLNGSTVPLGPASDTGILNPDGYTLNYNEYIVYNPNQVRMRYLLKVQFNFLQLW
UniProt P09874, whole entry: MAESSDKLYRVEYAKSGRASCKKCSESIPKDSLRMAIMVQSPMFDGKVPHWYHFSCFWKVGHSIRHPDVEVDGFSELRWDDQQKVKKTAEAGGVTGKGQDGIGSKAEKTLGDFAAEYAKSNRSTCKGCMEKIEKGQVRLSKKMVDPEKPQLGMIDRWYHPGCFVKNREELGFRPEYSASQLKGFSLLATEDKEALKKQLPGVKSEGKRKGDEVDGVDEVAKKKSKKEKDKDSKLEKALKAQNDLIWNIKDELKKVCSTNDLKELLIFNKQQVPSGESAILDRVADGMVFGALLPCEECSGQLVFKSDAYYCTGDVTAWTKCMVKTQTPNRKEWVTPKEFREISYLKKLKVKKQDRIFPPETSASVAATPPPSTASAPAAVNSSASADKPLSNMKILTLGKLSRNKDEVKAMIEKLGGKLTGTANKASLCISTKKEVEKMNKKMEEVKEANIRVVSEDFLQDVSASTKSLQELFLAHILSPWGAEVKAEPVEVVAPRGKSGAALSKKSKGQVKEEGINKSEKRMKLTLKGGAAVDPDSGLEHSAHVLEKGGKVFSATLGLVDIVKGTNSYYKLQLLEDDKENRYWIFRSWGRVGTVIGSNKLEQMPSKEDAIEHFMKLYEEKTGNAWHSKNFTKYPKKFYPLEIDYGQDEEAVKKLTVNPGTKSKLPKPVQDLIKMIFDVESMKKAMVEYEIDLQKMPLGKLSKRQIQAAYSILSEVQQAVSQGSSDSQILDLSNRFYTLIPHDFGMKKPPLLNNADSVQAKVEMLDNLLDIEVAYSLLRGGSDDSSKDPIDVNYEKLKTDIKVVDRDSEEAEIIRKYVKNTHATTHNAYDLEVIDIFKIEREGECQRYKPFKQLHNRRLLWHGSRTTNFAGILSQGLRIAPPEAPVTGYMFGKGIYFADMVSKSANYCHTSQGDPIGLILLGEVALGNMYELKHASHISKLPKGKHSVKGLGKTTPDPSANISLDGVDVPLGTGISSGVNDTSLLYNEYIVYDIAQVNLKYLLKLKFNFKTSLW

How the values were obtained:
[1] = molecular target: T1, Poly [ADP-ribose] polymerase tankyrase-1 (Homo sapiens, UniProt O95271)
T1 sequence (O95271 whole entry): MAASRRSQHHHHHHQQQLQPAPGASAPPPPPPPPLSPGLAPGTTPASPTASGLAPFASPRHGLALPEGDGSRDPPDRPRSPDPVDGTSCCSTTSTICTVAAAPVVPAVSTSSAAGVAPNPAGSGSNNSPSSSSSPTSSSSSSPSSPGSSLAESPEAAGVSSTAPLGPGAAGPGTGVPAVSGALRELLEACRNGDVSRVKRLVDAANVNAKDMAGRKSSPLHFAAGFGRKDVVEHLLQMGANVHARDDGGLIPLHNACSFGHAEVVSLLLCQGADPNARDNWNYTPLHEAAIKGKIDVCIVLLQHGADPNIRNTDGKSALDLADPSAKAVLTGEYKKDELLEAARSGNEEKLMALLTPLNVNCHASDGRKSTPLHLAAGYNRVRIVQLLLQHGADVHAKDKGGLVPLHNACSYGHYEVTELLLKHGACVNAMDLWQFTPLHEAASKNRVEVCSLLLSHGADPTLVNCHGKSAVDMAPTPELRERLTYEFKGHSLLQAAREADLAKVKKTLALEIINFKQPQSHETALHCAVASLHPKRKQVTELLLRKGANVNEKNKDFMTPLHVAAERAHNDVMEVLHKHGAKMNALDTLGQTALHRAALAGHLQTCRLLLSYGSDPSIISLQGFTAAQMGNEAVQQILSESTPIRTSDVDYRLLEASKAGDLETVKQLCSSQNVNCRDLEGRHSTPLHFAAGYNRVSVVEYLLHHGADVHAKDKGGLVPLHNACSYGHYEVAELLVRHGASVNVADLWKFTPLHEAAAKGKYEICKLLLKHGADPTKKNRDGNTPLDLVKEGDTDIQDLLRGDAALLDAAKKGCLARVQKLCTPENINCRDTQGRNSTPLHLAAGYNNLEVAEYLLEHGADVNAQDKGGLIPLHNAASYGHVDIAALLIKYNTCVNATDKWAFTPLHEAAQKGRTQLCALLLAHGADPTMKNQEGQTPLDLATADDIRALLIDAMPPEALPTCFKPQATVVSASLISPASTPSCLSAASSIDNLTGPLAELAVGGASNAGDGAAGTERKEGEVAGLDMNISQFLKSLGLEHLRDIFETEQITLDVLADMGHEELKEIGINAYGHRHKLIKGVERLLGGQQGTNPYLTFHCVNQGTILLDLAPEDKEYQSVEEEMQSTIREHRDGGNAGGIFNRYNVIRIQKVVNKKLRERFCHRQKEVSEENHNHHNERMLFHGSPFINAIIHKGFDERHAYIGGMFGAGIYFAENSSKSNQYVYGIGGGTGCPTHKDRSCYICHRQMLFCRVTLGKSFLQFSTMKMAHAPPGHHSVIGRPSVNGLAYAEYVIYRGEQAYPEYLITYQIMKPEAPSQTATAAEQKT

HT-29 [2] = experiment: cells; details: Homo sapiens, HT-29, read-out: INH
[3] = molecular target: Poly [ADP-ribose] polymerase 2 (Homo sapiens, UniProt Q9UGN5)
HT-29 [4] = experiment: cells; details: Homo sapiens, HT-29, read-out: INH; remark: listed apart in the source
[5] = molecular target: Poly [ADP-ribose] polymerase tankyrase-2 (Homo sapiens, UniProt Q9H2K2); experiment: biochemical
[6] = molecular target: Poly [ADP-ribose] polymerase 1 (Homo sapiens, UniProt P09874)
HT-29 [7] = experiment: cells; details: Homo sapiens, HT-29, read-out: INH; remark: listed apart in the source

IC50 [1] [nM]	IC50 [3] [nM]	IC50 [5] [nM]	IC50 [6] [nM]	Structure (SMILES)	inhibition at 1 µM (HT-29 [2]) [%]	inhibition at 100 µM (HT-29 [4]) [%]	inhibition at 10 µM (HT-29 [7]) [%]
873	928	863	> 10000	COc1cccc2c(O)nc(-c3ccc([N+](=O)[O-])cc3)nc12	0	0	0
155	6020	62	> 10000	COc1cccc2c(=O)[nH]c(-c3ccc(Cl)cc3)nc12	0	0	0

Structure (SMILES)	IC50 [1] [nM]	IC50 [3] [nM]	IC50 [5] [nM]	IC50 [6] [nM]	inhibition at 1 µM (HT-29 [2]) [%]	inhibition at 100 µM (HT-29 [4]) [%]	inhibition at 10 µM (HT-29 [7]) [%]
COc1cccc2c(O)nc(-c3ccc(C(F)(F)F)cc3)nc12	73	570	87	> 100000	0	0	0
